These results are taken from ChEMBL document CHEMBL1136781, “Comparison of in vitro P-glycoprotein screening assays: recommendations for their use in drug discovery” (J Med Chem, 2003).

Protein sequences, listed by entry. Tags and fused reporters are not part of them.
UniProt P08183, whole entry: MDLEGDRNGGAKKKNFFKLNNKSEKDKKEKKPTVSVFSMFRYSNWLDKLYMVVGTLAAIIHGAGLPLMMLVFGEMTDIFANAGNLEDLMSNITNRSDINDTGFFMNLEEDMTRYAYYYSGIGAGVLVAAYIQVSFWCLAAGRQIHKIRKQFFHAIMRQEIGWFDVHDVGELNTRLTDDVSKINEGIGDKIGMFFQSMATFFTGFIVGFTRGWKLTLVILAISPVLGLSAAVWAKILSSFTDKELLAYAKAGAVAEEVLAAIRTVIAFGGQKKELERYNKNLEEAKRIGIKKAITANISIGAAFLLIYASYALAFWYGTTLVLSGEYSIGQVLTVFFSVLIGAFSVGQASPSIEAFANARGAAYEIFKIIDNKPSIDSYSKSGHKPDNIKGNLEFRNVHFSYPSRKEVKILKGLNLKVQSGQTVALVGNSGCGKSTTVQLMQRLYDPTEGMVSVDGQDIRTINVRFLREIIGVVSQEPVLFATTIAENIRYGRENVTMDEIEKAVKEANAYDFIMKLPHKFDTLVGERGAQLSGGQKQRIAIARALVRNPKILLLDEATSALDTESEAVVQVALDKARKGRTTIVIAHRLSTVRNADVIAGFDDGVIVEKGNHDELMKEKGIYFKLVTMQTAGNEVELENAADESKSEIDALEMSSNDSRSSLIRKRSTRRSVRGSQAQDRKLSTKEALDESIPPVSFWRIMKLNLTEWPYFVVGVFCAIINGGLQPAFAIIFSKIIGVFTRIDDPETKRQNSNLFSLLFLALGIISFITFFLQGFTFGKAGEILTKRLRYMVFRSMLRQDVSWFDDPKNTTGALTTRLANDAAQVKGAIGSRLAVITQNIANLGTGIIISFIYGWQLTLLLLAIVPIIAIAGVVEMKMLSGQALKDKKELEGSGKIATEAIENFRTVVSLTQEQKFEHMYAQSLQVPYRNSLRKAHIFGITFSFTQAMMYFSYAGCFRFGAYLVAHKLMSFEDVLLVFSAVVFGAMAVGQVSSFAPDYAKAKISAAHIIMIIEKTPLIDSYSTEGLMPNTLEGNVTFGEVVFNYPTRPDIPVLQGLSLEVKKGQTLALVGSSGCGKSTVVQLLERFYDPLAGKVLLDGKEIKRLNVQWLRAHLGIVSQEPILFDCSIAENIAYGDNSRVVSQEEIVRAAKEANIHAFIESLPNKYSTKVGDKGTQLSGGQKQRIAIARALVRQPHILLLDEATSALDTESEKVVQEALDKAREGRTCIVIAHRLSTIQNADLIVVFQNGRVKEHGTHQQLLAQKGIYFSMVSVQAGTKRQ

The structures appear in SMILES notation.

Test [1] deals with T1, ATP-dependent translocase ABCB1 (Homo sapiens, UniProt P08183). In words: TP_TRANSPORTER: inhibition of Calcein-AM efflux in MDR1-expressing LLC-PK1 cells. It counts as functional, cell-based.
For test [2], the target named is T1, ATP-dependent translocase ABCB1. The test is described as follows: Inhibition of P-glycoprotein, human L-MDR1 expressed in LLC-PK1 epithelial cells using calcein-AM polarisation assay. It counts as functional, cell-based.

By IC50 is commonly meant the concentration that inhibits the measured activity by half.

`COC(=O)C1=C(C)NC(C)=C(C(=O)OCCN(C)Cc2ccccc2)C1c1cccc([N+](=O)[O-])c1` (configuration not stated) [NICARDIPINE]: the concentration for half-maximal inhibition (IC50) in test [1] and in test [2] was 2300 nM throughout.
